GIV-Gai inh: GIV-Galpha-i interaction inhibition. AID 1224905. actives 0.42% (n = 210,000). percent of control (FP), % (test concentration not listed). Galpha-i3/FITC-GIV peptide fluorescence polarization, 90 min; stronger effect = lower value; scaled: aluminum fluoride 0%, vehicle 100%;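 active = replicate mean at 85% of control or lower, very high polarization wells dropped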;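 also: wells of about 15 µL received 100 nL stock; the first replicate is given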
HCMV UL50-53 inh: inhibitors of HCMV UL50-UL53 interaction, biochemical, HTRF | AID 1918969, 2023 | hit rate 0.15% among 190,000 | normalized percent inhibition | HCMV UL50-UL53 nuclear egress complex (human cytomegalovirus) | inhibition, % (test concentration not listed); in the data active = inhibition above about 27%, passing the limit was not always enough
The depositor's hits bear a star; nt = no result; ! = not active in a repeat. A selection: hits, their analogues and other compounds. The true share with any hit is near 0.43%.

#1 O=c1c2sc3ccccc3c2n(Cc2ccccc2F)c(=O)n1Cc1ccco1
#2 CCN(CC)c1ccc2cc(-c3nc(-c4ccccc4)cs3)c(=O)oc2c1
#3 COc1cc(-c2noc(-c3cc4cccc(C)c4oc3=O)n2)cc(OC)c1OC
#4 CCN(CC)c1ccc2cc(-c3nc(-c4ccccc4F)no3)c(=O)oc2c1
#5 CCN(CC)c1ccc2cc(-c3nc(-c4cc(OC)c(OC)c(OC)c4)no3)c(=O)oc2c1
#6 CCN(CC)c1ccc2cc(-c3nnc(-c4cccc(Cl)c4)o3)c(=O)oc2c1
#7 CCN(CC)c1ccc2cc(-c3csnn3)c(=O)oc2c1
#8 CCN(CC)c1ccc2cc(-c3csc(C)n3)c(=O)oc2c1
screen / no.	1	2	3	4	5	6	7	8
GIV-Gai inh	101.1	-31.6*!	101.3	116.6	-20.9*	7.6*	162.3	nt
HCMV UL50-53 inh	-9.1	nt	nt	nt	nt	-44.7	-32.2	-42.2

#9 CCN(CC)c1ccc2cc(-c3nc(-c4cccs4)no3)c(=O)oc2c1
#10 CCOC(=O)C1CCN(Cn2c(O)c(N=NC(=S)Nc3cccc(OC)c3)c3ccccc32)CC1
#11 Cc1cc(C)n(-c2nc3cc(Cl)ccc3nc2Nc2ccc(C)c(F)c2)n1
#12 Cc1cc(C)n(-c2nc3cc(Cl)ccc3nc2Nc2ccc3c(c2)n(C)c(=O)n3C)n1
#13 CC(O)CC(C)(C)O (stereo unspecified)
#14 CCCCCCCCCCCCC(=O)OC1CCC2(C)C3CCC4(C)C(C(C)CCCC(C)C)CCC4C3CC(Br)C2(Br)C1 (stereo unspecified)
#15 Cc1csc2c(=O)sc(NC(=O)c3ccco3)nc12
#16 Cc1csc2c(=O)sc(NC(=O)c3cccs3)nc12
screen / no.	9	10	11	12	13	14	15	16
GIV-Gai inh	-20.9*	102.5	103.5	3.9*	nt	107.1	103.2	102.6
HCMV UL50-53 inh	nt	-59.5	-0.3	4.8	-62.4	nt	32.7	57.7*

#17 Cc1ccc2nc(SCc3ccccc3C#N)[nH]c2c1
#18 Cc1ccc(SCC(=O)NC2(C#N)CCCCC2)c(C)c1
#19 Cc1ccc(/C=C/C(=O)NCC(c2ccco2)N2CCCC2)o1 (stereo unspecified)
#20 O=C(Nc1ccc2nc3c(=O)[nH]c(=O)[nH]c3nc2c1)C(F)(F)F
#21 Cc1ccc2nc3[nH]c(=O)[nH]c(=O)c3nc2c1
#22 CCOc1cc(N2CCOCC2)c(OCC)cc1NC(=O)c1cccc(-n2cnnn2)c1
#23 O=C(c1ccccc1)c1nc2ccccc2oc1=O
#24 O=c1oc2ccccc2nc1/C=C(\O)c1cccs1
screen / no.	17	18	19	20	21	22	23	24
GIV-Gai inh	98.7	nt	nt	-15.9*	102.6	nt	nt	-68.8*
HCMV UL50-53 inh	-22.9	2.2	-31.2	nt	nt	-1.3	-12.2	-23.7

#25 COc1ccccc1C(=O)Nc1nc2n(n1)C(c1ccc(F)cc1)C=C(c1ccc(Cl)cc1)N2 (stereo unspecified)
#26 COc1ccc(C(=O)Nc2nc3n(n2)C(c2ccc(F)cc2)C=C(c2ccc(Cl)cc2)N3)cc1 (stereo unspecified)
#27 Cc1ccc(S(=O)(=O)Nc2nc3n(n2)C(c2ccc(Cl)cc2)C=C(c2ccccc2)N3)cc1 (stereo unspecified)
#28 Cc1ccc(C2C=C(c3ccc(Cl)cc3)Nc3nc(NC(=O)c4ccco4)nn32)cc1 (stereo unspecified)
#29 Cc1ccc(S(=O)(=O)Nc2nc3n(n2)C(c2ccc(Cl)cc2)C=C(c2ccc(Cl)cc2)N3)cc1 (stereo unspecified)
#30 O=C(Nc1nc2n(n1)C(c1ccc(F)cc1)C=C(c1ccccc1)N2)c1ccc(Cl)cc1 (stereo unspecified)
#31 COC(=O)c1ccc(C2C(S(=O)(=O)c3ccccc3)=C(O)C(=O)N2c2cccc(Cl)c2)cc1 (stereo unspecified)
#32 COC(=O)C1=C(c2ccccc2)c2ccccc2S(=O)(=O)N1CC(=O)Nc1cccc(C)c1
screen / no.	25	26	27	28	29	30	31	32
GIV-Gai inh	124.8	-66.1*	-66.1*!	32.6*	113.2	141.1	101.9	103.0
HCMV UL50-53 inh	-34.9	-16.7	-53.6	-51.6	-20.0	-26.8	-16.7	-43.5

Four entries already listed, sorted by heavy-atom count, low to high.
#28 Cc1ccc(C2C=C(c3ccc(Cl)cc3)Nc3nc(NC(=O)c4ccco4)nn32)cc1 (stereo unspecified)
#30 O=C(Nc1nc2n(n1)C(c1ccc(F)cc1)C=C(c1ccccc1)N2)c1ccc(Cl)cc1 (stereo unspecified)
#32 COC(=O)C1=C(c2ccccc2)c2ccccc2S(=O)(=O)N1CC(=O)Nc1cccc(C)c1
#25 COc1ccccc1C(=O)Nc1nc2n(n1)C(c1ccc(F)cc1)C=C(c1ccc(Cl)cc1)N2 (stereo unspecified)
screen / no.	28	30	32	25
GIV-Gai inh	32.6*	141.1	103.0	124.8
HCMV UL50-53 inh	-51.6	-26.8	-43.5	-34.9

The list continues:
#33 O=C(c1cc2c(=O)[nH]c3ccccc3c2s1)N1CCN(c2ccc(F)cc2)CC1
#34 O=C(c1cc2c(=O)[nH]c3ccccc3c2s1)N1CCCC1
#35 Clc1ccc(-c2nnc3cccc(Cl)n23)cc1
#36 COc1ccc(C2Oc3c(OC)cccc3C3CC(c4ccc(C)o4)=NN32)cc1 (stereo unspecified)
#37 CN1C(=O)c2cccc(NC(=O)CSc3ccc(F)cc3)c2C1=O
#38 CCNc1cccc2c1C(=O)N(C)C2=O
#39 COc1ccc2cc3cc(C(=O)N(C)c4cc(C)ccc4C)oc3nc2c1
#40 Cc1ccccc1NC(=O)C(C)Sc1nc2ccccc2c(=O)n1C (stereo unspecified)
screen / no.	33	34	35	36	37	38	39	40
GIV-Gai inh	100.1	57.6*	108.3	152.8	101.4	6.2*	97.5	100.5
HCMV UL50-53 inh	-22.8	nt	nt	nt	-35.4	-67.5	-57.6	-17.1

#41 CC(Sc1nc2ccccc2c(=O)n1C)C(=O)Nc1ccc2c(c1)OCCO2 (stereo unspecified)
#42 O=S(=O)(Nc1ccccc1)c1ccc2c(c1)OCCO2
#43 CC(=O)N1CCN(C(=O)c2cccc(Oc3ccccc3)c2)CC1
#44 C=CCNc1nc2ccccn2c(=O)c1/C=C1\SC(=S)N(CCOC)C1=O
#45 C=CCNc1nc2ccccn2c(=O)c1/C=C1\SC(=S)N(Cc2ccc3c(c2)OCO3)C1=O
#46 CCCN1C(=O)/C(=C/c2c(NCC)nc3ccccn3c2=O)SC1=S
#47 CN1C(=O)/C(=C/c2c(N3CCSCC3)nc3ccccn3c2=O)SC1=S
#48 O=C1/C(=C/c2c(NCCCn3ccnc3)nc3ccccn3c2=O)SC(=S)N1CC1CCCO1 (stereo unspecified)
screen / no.	41	42	43	44	45	46	47	48
GIV-Gai inh	nt	nt	nt	-75.4*	-26.8*	-75.4*	185.7	259.7
HCMV UL50-53 inh	34.1*	-14.7	-16.4	-33.1	nt	-23.6	-4.5	nt

#49 O=C1/C(=C/c2c(NCc3ccccc3)nc3ccccn3c2=O)SC(=S)N1CC1CCCO1 (stereo unspecified)
#50 O=C1/C(=C/c2c(NCC3CCCO3)nc3ccccn3c2=O)SC(=S)N1C1CCCCC1 (stereo unspecified)
#51 C=CCNc1nc2ccccn2c(=O)c1/C=C1\SC(=S)N(C)C1=O
#52 CCOc1ccc(NS(=O)(=O)c2cc(C(=O)N3CCN(c4ccc(C)cc4C)CC3)n[nH]2)cc1
#53 COc1ccc(NC(=O)c2ccc(-n3nc(OCc4ccc(Cl)cc4)ccc3=O)cc2)cc1OC
#54 COc1ccc(C2CC(=O)N(c3cccc(Br)c3)C(=O)C2)cc1OC
#55 CCN1C(=O)/C(=C\C=C2/N(CC)c3ccc(C(=O)OC)cc3N2CC)SC1=S
#56 CCN=C1S/C(=C\c2ccc(C(=O)OC)cc2)C(=O)N1CC
screen / no.	49	50	51	52	53	54	55	56
GIV-Gai inh	264.3	315.1	-24.4*	102.4	107.6	98.4	-73.7*	100.3
HCMV UL50-53 inh	nt	nt	-36.0	-1.1	-45.8	-35.2	-44.5	-57.8

#57 CCN(CC)c1ccc(/C=c2\sc3nc(-c4ccco4)nn3c2=O)cc1
#58 CN(C)c1ccc(/C=c2/sc3nc(-c4ccc(Cl)cc4)nn3c2=O)cc1
#59 O=C(C1CCN(c2nc3ccccc3n3cccc23)CC1)N1CCC(Cc2ccccc2)CC1
#60 COC(=O)c1ccc(-n2c(C)cc3ccccc32)s1
#61 Cc1cc2ccccc2n1-c1ccc(C(=O)NC2CCCC2)s1
#62 CCOC(=O)c1cc(C(N)=O)c(SC)[nH]c1=O
#63 OC(c1ccc(Cl)cc1)C(O)c1nc2ccccc2[nH]1 (stereo unspecified)
#64 OCC(O)C(O)C(O)C(O)c1nc2ccccc2[nH]1 (stereo unspecified)
screen / no.	57	58	59	60	61	62	63	64
GIV-Gai inh	-83.2*	113.5	103.1	105.7	107.6	nt	nt	nt
HCMV UL50-53 inh	-13.5	nt	-10.7	-7.3	56.4*	-33.3	-20.3	37.2*

#65 Nc1cnc2cccc3c2c1-c1ccccc1C3=O
#66 Cc1nc2c3c(cccc3n1)C(=O)c1ccccc1-2
#67 CN1CCc2c(sc(NC(=O)CN3C(=O)c4ccccc4C3=O)c2-c2nc3ccccc3s2)C1
#68 CN1CCc2c(sc(NC(=O)C3CC3)c2-c2nc3ccccc3s2)C1
screen / no.	65	66	67	68
GIV-Gai inh	-73.7*	91.5	124.1	-3.2*
HCMV UL50-53 inh	-60.1	-95.9	nt	nt

Screening data as filed in PubChem.
